Laboratory results as given in US7456274B2, “Inhibition of metallo-β-lactamase” (priority 2003, dated 2008).

By UniProt entry, the sequences of proteins in these tests, tags left out. Residues count along the entry.
UniProt P14488, 30-256: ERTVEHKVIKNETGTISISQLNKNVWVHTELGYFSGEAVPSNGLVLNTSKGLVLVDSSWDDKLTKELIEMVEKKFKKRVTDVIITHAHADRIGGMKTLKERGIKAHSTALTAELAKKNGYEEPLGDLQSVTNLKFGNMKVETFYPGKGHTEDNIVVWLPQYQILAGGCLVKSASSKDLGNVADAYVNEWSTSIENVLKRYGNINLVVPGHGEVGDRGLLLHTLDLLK
UniProt P04190, 31-257: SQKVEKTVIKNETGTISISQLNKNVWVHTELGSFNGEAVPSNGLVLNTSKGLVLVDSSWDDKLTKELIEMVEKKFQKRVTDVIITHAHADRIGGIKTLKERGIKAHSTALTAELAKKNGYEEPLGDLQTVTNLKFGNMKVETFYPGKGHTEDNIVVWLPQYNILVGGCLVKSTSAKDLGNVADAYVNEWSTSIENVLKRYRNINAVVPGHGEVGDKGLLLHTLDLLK

Columns and labels:
[1] = target: B. cereus 5/B/6 metallo-β-lactamase (Bacillus cereus, UniProt P14488); type: biochemical; conditions: for IC50: pH=7.0, 4 mM cephalosporin C
[2] = target: metallo-β-lactamases (Bacillus cereus enzyme) (Bacillus cereus, UniProt P04190); conditions: Mollard et al. (2001); cited from earlier work

**Q.** With 5′-d(CCAAACTTGG)-3′ [10-mer] as the substance, how does the IC50 ([1]; assay in the presence of 1 mM ZnSO4, 50 mM MOPS, read-out: IC50 in the presence of Zn2+ ions) read?
**A.** 32 nM

**Q.** And the IC50 ([1]; enzyme preincubated 15 min at 30° C. in 50 mM MOPS, read-out: IC50)?
**A.** 1.2 nM

**Q.** What about the Ki ([1]; intercept replot of Lineweaver-Burk data, read-out: Ki′ (dissociation constant for the inhibitor from the enzyme-substrate-inhibitor complex)) of the same substance?
**A.** 1.5 nM

**Q.** What about the Ki ([1]; slope replot of Lineweaver-Burk data, read-out: Ki (dissociation constant for the inhibitor from the enzyme-inhibitor complex)) of the same substance?
**A.** 0.31 nM

**Q.** With thiomandelic acid as the substance, how does the type of inhibition [2] read?
**A.** competitive inhibitor

**Q.** For thiomandelic acid [S-isomer], which Ki [2] is on record?
**A.** 1280 nM

Read-outs that look alike come from different tables or passages of the source.
